The list shows a part of the results, in another mix than the full data. Activity calls are given as the source filed them.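 How the source made its calls: active means mean activation above about 17%, with every replicate also reaching it (limit read from the data, passing the limit was not always enough); inconclusive means only one of the two conditions met; inactive means the rest.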
Biological target: Protein FosB (Mus musculus) (UniProt P13346)
Assay: activators of delta FosB homodimer, primary screen, biochemical, fluorescence polarization, TAMRA-CDK5 oligo, single point (AID 493131);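 further: fluorescence polarization rise as delta FosB binds a TAMRA Cdk5 AP-1 oligo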
Conditions: purified delta FosB, at 25 µM, hits give high values, percent of positive-control signal above neutral wells

Amino acid sequences for entries named in this document (tags omitted).
UniProt P13346, whole entry: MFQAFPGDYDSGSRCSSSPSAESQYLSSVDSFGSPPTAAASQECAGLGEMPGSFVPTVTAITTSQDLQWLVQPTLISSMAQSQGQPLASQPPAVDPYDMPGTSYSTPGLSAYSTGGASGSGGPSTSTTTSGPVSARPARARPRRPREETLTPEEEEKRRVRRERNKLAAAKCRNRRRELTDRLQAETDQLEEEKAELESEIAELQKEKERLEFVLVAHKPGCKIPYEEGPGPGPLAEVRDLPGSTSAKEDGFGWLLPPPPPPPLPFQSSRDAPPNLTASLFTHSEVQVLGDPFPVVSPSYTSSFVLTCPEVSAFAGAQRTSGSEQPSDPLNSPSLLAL

Row | Compound | activation
1 | CCC(=O)N(c1ccccc1)C1(COC)CCN(CCc2cccs2)CC1 | inactive: -2.16%
2 | CCC(=O)N(c1ccccc1)C1(COC)CCN(CCn2nnn(CC)c2=O)CC1 | inactive: -2.13%
